Amino acid sequences for entries named in this document (tags omitted). Residues count along the entry.
UniProt P0A786, 2-311: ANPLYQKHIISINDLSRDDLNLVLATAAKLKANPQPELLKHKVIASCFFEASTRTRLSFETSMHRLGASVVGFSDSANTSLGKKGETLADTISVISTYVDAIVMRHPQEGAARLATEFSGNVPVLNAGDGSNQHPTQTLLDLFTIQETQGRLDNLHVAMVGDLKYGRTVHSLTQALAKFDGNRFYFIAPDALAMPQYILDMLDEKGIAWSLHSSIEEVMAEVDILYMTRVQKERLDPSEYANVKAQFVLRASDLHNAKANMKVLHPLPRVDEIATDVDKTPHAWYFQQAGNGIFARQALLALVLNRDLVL

In publication PMC2783949 (Bioorganic & medicinal chemistry, 2009):

Biological target: catalytic subunit of E. coli ATCase (Escherichia coli, UniProt P0A786)
Conditions: ratio to Ki of PALA

Structure (SMILES): O=C(O)C[C@H](NC(=O)CP(=O)(O)O)C(=O)O [Compound 1, N-phosphonacetyl-L-aspartate]
- Ki/Ki(PALA): 1
